Sequences of proteins named here, by UniProt entry; tags and fusion partners are left off. Residues count along the entry.
UniProt P31423, 33-912 Q124R limits assumed: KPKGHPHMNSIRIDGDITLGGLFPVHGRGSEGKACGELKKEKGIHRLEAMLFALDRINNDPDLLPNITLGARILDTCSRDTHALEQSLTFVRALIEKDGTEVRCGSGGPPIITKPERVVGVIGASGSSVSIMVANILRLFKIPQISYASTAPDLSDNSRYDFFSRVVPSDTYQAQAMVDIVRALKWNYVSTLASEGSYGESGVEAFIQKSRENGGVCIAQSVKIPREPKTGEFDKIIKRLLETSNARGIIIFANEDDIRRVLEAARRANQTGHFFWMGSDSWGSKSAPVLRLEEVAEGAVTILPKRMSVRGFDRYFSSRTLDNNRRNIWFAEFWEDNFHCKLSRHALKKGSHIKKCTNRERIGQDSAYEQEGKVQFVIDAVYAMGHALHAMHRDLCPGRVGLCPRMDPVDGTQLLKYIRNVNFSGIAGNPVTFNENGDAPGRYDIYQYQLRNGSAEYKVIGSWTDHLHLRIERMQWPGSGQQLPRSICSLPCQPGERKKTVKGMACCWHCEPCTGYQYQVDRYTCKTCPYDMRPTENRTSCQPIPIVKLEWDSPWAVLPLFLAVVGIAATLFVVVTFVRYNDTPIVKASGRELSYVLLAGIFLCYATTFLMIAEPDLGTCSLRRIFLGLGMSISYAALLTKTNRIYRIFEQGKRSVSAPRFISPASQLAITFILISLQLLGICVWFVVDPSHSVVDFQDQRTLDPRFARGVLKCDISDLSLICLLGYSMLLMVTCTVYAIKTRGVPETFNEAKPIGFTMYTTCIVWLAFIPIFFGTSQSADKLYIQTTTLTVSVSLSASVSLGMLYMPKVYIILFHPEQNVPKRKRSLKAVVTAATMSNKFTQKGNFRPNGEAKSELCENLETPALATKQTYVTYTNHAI

In BindingDB's records for doi:10.7270/Q2DR2SWV (Vanderbilt Screening Center For Gpcrs, Ion Channels and …, 2010):

Target: Metabotropic glutamate receptor 4 [Q124R] (Rattus norvegicus, UniProt P31423, Q124R)
Assay: PubChem AID 2185

EC50: 107 nM
Compound: COc1cc(NC(=O)c2ccccn2)ccc1Cl
